The record followed here is patent publication US5693617A, “Inhibitors of the 26s proteolytic complex and the 20s proteasome contained therein” (ProScript, Inc., priority 1995, dated 1997).

Amino acid sequences for entries named in this document (tags omitted). Residues count along the entry.
UniProt G1T4Q9, 60-263 limits assumed: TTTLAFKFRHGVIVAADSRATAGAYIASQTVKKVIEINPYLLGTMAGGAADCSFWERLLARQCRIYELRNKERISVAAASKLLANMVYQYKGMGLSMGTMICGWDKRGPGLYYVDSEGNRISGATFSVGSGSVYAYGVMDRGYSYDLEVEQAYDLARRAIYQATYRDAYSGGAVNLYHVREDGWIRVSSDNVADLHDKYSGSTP
UniProt G1SU71, 1-241 partner: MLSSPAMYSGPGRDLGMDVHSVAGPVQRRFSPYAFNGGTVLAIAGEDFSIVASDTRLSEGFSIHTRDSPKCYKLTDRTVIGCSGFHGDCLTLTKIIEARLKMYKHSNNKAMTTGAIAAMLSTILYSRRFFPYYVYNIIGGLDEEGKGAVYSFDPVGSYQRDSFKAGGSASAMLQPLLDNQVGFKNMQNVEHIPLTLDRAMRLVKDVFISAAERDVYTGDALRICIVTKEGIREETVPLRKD

This assay deals with 20S proteasome (Oryctolagus cuniculus, UniProt G1T4Q9). Put plainly: Inhibition of the 20S proteasome peptidase activity (kinetic experiments). The conditions noted are these: read-out: Ki 20S; Rabbit muscle, SDS-activated, substrate Suc-LLVY-AMC. The assay is classed as biochemical.
For the molecule `CC(C)CC(C=O)NC(=O)[C@H](CC(C)C)NC(=O)[C@H](CC(C)C)NC(=O)CCCO` (stereo partly drawn), the Ki (in general, a dissociation constant, usually derived from enzyme kinetics or from competition with a known ligand) amounted to 8 nM. Regarding `CC(C)C[C@@H](C=O)NC(=O)[C@H](CC(C)C)NC(=O)[C@H](CC(C)C)NC(=O)Cc1ccncc1`, the Ki came out at 5.5 nM.

Take `CC(C)C[C@@H](C=O)NC(=O)[C@H](CC(C)C)NC(=O)[C@H](CC(C)C)NC(=O)N1CCOCC1`: the Ki amounted to 20 nM.

Turning to `CC(C)C[C@@H](C=O)NC(=O)[C@H](CC1CCCCC1)NC(=O)[C@H](Cc1c[nH]c2ccccc12)NC(=O)OCc1ccccc1`, the Ki stood at 0.08 nM. In the case of `CC(C)CC(C=O)NC(=O)[C@H](Cc1ccccc1)NC(=O)OCc1ccccc1` (stereo partly drawn), the Ki came to 1000 nM.

For `CC(C)C[C@@H](C=O)NC(=O)CC(O)[C@H](CC(C)C)NC(=O)[C@@H](CC(C)C)NC(=O)OCc1ccccc1` (stereo partly drawn), the Ki was determined as 57 nM. Regarding `CC(C)CC(C=O)NC(=O)[C@H](CC(C)C)NC(=O)[C@H](CC(C)C)NC(=O)CCC(=O)O` (stereo partly drawn), the Ki is 39 nM. The figure for `CC(C)C[C@@H](C=O)NC(=O)[C@H](CC(C)C)NC(=O)[C@H](CC(C)C)NC(=O)OCc1cccnc1` is 5.5 nM. For `CC(C)CC(C=O)NC(=O)[C@H](CC(C)C)NC(=O)[C@H](Cc1csc2ccccc12)NC(=O)OCc1ccccc1` (stereo partly drawn) the value was 0.19 nM; for `CC(C)C[C@H](NC(=O)OCc1ccccc1)C(=O)N[C@@H](CC(C)C)C(=O)NC(C=O)Cc1ccc(F)cc1` (stereo partly drawn), 14 nM. Take `CC(C)C[C@H](NC(=O)OC(C)(C)C)C(=O)N[C@@H](CC(C)C)C(=O)N[C@H](C=O)Cc1ccc(O)cc1`: the Ki was 77 nM.

For the molecule `CC(C)C[C@@H](C=O)NC(=O)[C@H](CC(C)C)NC(=O)[C@H](CC(C)C)NC(=O)C(F)(F)F`, the Ki was found to be 34 nM. Turning to `CC(C)C[C@@H](C=O)NC(=O)[C@H](CC1CCCCC1)NC(=O)[C@H](Cc1cccc2ccccc12)NC(=O)OCc1ccccc1`, the Ki is 0.1 nM. Consider `CC(C)C[C@H](NC(=O)OCc1ccccc1)C(=O)N[C@@H](CC(C)C)C(=O)N[C@@H](CC(C)C)[C@@H](O)CC=O`, for which the Ki amounted to 154 nM. For the molecule `CC(C)C[C@@H](C=O)NC(=O)[C@H](CC(C)C)NC(=O)CNC(=O)OCc1ccccc1`, the Ki was 557 nM. The figure for `CC(C)C[C@@H](C=O)NC(=O)[C@H](C)NC(=O)[C@@H]1CCCN1C(=O)OCc1ccccc1` is 700 nM; for `CC(C)C[C@@H](C=O)NC(=O)[C@H](CC(C)C)NC(=O)[C@H](CC(C)C)NS(=O)(=O)Cc1ccccc1` it is 11 nM; for `CC(C)C[C@@H](C=O)NC(=O)[C@H](CC(C)C)NC(=O)C1Cc2ccccc2CN1C(=O)OCc1ccccc1` (stereo partly drawn) it is 71 nM. `CC(C)C[C@@H](C=O)NC(=O)[C@H](CC(C)C)NC(=O)[C@H](CC(C)C)NC(=O)Cc1cccnc1`: the Ki worked out at 9.2 nM. `CC(C)CC(C=O)NC(=O)[C@H](Cc1cccc2ccccc12)NC(=O)N1CCOCC1` (stereo partly drawn): the Ki was 97 nM. Turning to `CC(C)C[C@@H](C=O)NC(=O)[C@H](CC(C)C)NC(=O)[C@H](CC(C)C)NC(=O)c1ccncc1`, the Ki was found to be 270 nM.
